{"source": "patent US6187906A", "about": "“Methods to improve neural outcome” (Aukland Uniservices Limited, priority 1998, dated 2001)", "tested_on": "mesencephalic neurons (dopaminergic)", "experiment": "Dopamine uptake in 6-OHDA treated embryonic mesencephalic cultures (Experiment 8)", "assay_type": "cell-based, Wistar rat", "settings": "2 μM", "note": "Where a name gives a salt, the structure may show the parent alone."}
{"smiles": "CN1Cc2c(N)cccc2C(c2ccccc2)C1", "note": "(stereo not shown) [nomifensine maleate, reference compound]", "values": [{"measurement": "[3H]dopamine uptake counts relative to control values", "result": "approximately 10%"}]}
